Settings: in vivo

## tetracycline pyrazole [CMT-5]
  biodistribution: only limited biodistribution

Source: US7014858B2, “Use methods of treating acne and telangiectasia” (CollaGenex Pharmaceuticals, Inc., priority 2001, dated 2006)
